# Binding of CDR-mutated scFvs to a peptide of the spike HR2 region

From the AlphaSeq antibody data of Engelhart et al. 2022 (doi:10.1038/s41597-022-01779-4), copy in the FLAb collection.

Target: peptide PDVDLGDISGINAS, taken from heptad repeat 2 (HR2) of SARS-CoV-2 spike.

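Phage display of a naive human antibody library on the peptide gave the parent. In library AAYL49, one, two or three CDR residues were substituted; doubles and triples were drawn at random. In AlphaSeq, yeast of one mating type display the scFv and yeast of the other type display the target. Mating (16 h, 30 °C) was followed by selection of diploids and sequencing of their barcodes. The ratio of observed to expected reads was calibrated, replicate by replicate, on BCL2-family standards whose Kd was known from biolayer interferometry. Each pool was mated in three replicate cultures.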

Ab-14 is the parent antibody, in scFv form: VH, then three GGGGS repeats, then VL. The light chain is unchanged in all variants.
VH: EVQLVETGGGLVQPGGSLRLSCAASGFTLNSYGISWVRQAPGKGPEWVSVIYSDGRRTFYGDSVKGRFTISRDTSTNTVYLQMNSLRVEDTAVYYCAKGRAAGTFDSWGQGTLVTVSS
VL: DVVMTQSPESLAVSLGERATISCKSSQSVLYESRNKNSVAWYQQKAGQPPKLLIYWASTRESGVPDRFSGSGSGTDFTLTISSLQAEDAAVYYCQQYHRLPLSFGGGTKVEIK

The whole VH of each variant is written out. This list gathers variants with a substitution at S31 (VH, numbered from residue 1). The Kd shown is the geometric mean over detected replicates; a lower Kd is a better binder. Where no diploid with the target was found in any replicate, the entry reads "nd": below detection, most likely a poor binder, though not proof of it. For reference, the parent read 4.4 nM as the reference entry and 13 µM (one replicate of three) as a member of this library.

Variant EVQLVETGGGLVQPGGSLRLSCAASGFPLNWYGFSWVRQAPGKGPEWVSVIYSDGRRTFYGDSVKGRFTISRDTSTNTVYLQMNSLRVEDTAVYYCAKGRAAGTFDSWGQGTLVTVSS showed nd (0 of 3 replicates; controls 2 of 9). For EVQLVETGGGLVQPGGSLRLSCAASGFTLNCYTISWVRQAPGKGPEWVSVIYSDGRRTFYGDSVKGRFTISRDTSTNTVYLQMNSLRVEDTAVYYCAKGRAAGTGDSWGQGTLVTVSS, the assay gave 5.2 µM (1 of 3 replicates; controls 0 of 9). Variant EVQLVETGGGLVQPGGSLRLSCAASGFTLNLYPISWVRQAPGKGPEWVSVIYSDGRRTFYGDSVKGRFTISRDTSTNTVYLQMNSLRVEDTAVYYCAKGRIAGTFDSWGQGTLVTVSS gave 15 µM (1 of 3 replicates; controls 2 of 9). Variant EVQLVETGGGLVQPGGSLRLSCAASNFTLNFYGISWVRQAPGKGPEWVSVIYSDGRRTFYGDSVKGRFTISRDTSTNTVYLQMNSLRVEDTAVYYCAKGRAAGTFDSWGQGTLVTVSS gave 82 µM (2 of 3 replicates; controls 3 of 9). Variant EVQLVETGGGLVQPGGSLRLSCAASGFTLNPYGISWVRQAPGKGPEWVSVIQSDGRRTFYGDSVKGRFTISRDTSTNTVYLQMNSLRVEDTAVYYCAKGRALGTFDSWGQGTLVTVSS gave nd (0 of 3 replicates; controls 1 of 9). Variant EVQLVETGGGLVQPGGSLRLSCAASGFTLNAYGISWVRQAPGKGPEWVSVIYSDGRRTFYGDSAKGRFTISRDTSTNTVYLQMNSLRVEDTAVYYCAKGRAAGIFDSWGQGTLVTVSS gave 93 µM (2 of 3 replicates; controls 4 of 9). With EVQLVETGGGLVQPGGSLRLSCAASGFTLNCYGISWVRQAPGKGPEWVSVIYSDMRRTFLGDSVKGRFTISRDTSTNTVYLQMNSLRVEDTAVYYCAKGRAAGTFDSWGQGTLVTVSS the result was nd (0 of 3 replicates; controls 1 of 9). Variant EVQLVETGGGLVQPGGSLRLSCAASGFTLNPYGISWVRQAPGKGPEWVSVIYSDGRRTFYGDSVDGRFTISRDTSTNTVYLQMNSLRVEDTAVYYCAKGRAAGTGDSWGQGTLVTVSS showed 3.2 µM (2 of 3 replicates; controls 0 of 9).

With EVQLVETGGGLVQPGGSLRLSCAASGFTLNVYGISWVRQAPGKGPEWVSVTYSDGRRTFYGDSVKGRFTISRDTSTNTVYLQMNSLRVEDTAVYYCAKGRAAGTEDSWGQGTLVTVSS the result was 250 µM (2 of 3 replicates; controls 4 of 9). Variant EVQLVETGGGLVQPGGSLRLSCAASGFTLNWYGISWVRQAPGKGPEWVSVEYSDGRRTFYGDSVKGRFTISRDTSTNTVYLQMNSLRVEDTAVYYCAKGEAAGTFDSWGQGTLVTVSS showed 160 µM (3 of 3 replicates; controls 3 of 9). Variant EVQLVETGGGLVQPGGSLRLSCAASGFTLNTYGISWVRQAPGKGPEWVSVIYSDGCHTFYGDSVKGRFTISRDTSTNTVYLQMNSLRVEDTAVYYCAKGRAAGTFDSWGQGTLVTVSS showed 230 nM (3 of 3 replicates; controls 2 of 9). For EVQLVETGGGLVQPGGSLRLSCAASGFTLNDYGISWVRQAPGKGPEWVSVIYSDGRRLFYGDSVKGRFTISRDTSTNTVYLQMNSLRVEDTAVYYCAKGRAAGTIDSWGQGTLVTVSS, the assay gave 150 µM (1 of 3 replicates; controls 1 of 9). With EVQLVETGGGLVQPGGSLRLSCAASGFTLNLYGISWVRQAPGKGPEWVSVIYSRGRRTFYGDSVKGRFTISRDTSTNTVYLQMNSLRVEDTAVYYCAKGRAQGTFDSWGQGTLVTVSS the result was 71 µM (2 of 3 replicates; controls 1 of 9). Variant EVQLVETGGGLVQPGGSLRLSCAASGFTLNWYGISWVRQAPGKGPEWVSVIYSDGARTFYRDSVKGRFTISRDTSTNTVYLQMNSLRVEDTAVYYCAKGRAAGTFDSWGQGTLVTVSS showed 34 nM (3 of 3 replicates; controls 1 of 9). Variant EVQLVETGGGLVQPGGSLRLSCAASGHTLNLYGISWVRQAPGKGPEWVSVCYSDGRRTFYGDSVKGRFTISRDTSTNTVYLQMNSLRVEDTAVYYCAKGRAAGTFDSWGQGTLVTVSS showed nd (0 of 3 replicates; controls 2 of 9). Variant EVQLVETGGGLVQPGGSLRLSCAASGFTLNWYGISWVRQAPGKGPEWVSVIYSDGRRTFYGDHVKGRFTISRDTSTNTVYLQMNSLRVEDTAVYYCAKGRAAGTFYSWGQGTLVTVSS showed 1.5 µM (2 of 3 replicates; controls 0 of 9).

Variant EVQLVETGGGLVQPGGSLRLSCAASGFTFNKYGISWVRQAPGKGPEWVSGIYSDGRRTFYGDSVKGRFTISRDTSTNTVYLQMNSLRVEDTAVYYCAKGRAAGTFDSWGQGTLVTVSS showed 180 µM (3 of 3 replicates; controls 6 of 9). With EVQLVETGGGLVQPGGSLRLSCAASGFTLNMYGISWVRQAPGKGPEWVSVIYSDGRRTPSGDSVKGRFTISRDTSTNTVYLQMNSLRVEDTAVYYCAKGRAAGTFDSWGQGTLVTVSS the result was nd (0 of 3 replicates; controls 0 of 9). Variant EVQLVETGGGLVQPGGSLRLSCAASGFTLANYGISWVRQAPGKGPEWVSVIYFDGRRTFYGDSVKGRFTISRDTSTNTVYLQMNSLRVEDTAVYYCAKGRAAGTFDSWGQGTLVTVSS showed 48 nM (3 of 3 replicates; controls 2 of 9).

2 of these entries, quoted again:

VH,Kd (apparent),replicates with signal,control signals
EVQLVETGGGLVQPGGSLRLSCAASGFTLNLYPISWVRQAPGKGPEWVSVIYSDGRRTFYGDSVKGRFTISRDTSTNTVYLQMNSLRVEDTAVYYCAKGRIAGTFDSWGQGTLVTVSS,15 µM,1 of 3,2 of 9
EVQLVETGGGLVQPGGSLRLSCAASNFTLNFYGISWVRQAPGKGPEWVSVIYSDGRRTFYGDSVKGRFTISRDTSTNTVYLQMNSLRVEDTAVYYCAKGRAAGTFDSWGQGTLVTVSS,82 µM,2 of 3,3 of 9

Background: pairings of library AAYL49 with three empty control strains gave a value in 15% of cases (median 11 µM, 5th percentile 680 nM). Values in that range, when seen in few replicates, are hard to tell from nonspecific mating. The control count says in how many pairings with the empty strains this scFv gave a signal.